Experimental data published in ChEMBL document CHEMBL2311273, “Discovery of potent, selective multidrug and toxin extrusion transporter 1 (MATE1, SLC47A1) inhibitors through prescription drug profiling and computational modeling” (J Med Chem, 2013).

Tests used:
[1] = molecular target: T1, Multidrug and toxin extrusion protein 2 (Homo sapiens, UniProt Q86VL8); assay: Inhibition of human MATE2K-mediated ASP+ uptake expressed in HEK293 cells after 1.5 mins by fluorescence assay; assay type: cell-based
T1 sequence (Q86VL8 whole entry): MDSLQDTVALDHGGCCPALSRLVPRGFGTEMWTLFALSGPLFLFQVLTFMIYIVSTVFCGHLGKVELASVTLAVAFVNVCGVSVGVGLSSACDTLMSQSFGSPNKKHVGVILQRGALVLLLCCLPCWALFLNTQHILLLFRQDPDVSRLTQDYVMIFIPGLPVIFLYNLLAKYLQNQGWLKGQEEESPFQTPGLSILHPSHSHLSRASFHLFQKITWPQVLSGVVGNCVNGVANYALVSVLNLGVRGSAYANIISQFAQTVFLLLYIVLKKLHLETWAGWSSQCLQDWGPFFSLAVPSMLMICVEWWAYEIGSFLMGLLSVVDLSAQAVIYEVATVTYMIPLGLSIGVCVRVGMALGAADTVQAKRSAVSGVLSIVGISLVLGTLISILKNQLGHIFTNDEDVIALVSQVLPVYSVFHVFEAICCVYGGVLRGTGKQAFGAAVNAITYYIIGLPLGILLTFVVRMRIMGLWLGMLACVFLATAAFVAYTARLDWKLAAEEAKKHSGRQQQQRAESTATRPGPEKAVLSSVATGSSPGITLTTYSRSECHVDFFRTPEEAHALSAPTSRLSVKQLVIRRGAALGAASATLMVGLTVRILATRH

[2] = molecular target: T2, Solute carrier family 22 member 2 (Homo sapiens, UniProt O15244); assay: Inhibition of human OCT2-mediated ASP+ uptake expressed in HEK293 cells after 3 mins by fluorescence assay; assay type: cell-based
T2 sequence (O15244 whole entry): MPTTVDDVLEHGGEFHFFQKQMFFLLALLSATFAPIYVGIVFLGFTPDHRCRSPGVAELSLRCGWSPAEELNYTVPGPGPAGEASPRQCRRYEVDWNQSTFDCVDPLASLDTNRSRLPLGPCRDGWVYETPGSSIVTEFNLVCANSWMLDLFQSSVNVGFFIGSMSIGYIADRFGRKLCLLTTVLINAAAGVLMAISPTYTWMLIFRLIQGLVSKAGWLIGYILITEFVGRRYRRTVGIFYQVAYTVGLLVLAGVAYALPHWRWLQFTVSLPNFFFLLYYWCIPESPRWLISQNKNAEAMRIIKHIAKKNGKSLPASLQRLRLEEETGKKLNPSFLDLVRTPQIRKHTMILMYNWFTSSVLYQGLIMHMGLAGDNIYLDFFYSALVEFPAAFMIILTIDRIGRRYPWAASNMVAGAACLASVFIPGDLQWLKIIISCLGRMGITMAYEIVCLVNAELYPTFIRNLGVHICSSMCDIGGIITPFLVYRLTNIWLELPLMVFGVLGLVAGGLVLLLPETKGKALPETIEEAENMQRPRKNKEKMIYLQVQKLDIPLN

[3] = molecular target: T3, Multidrug and toxin extrusion protein 1 (Homo sapiens, UniProt Q96FL8); assay: Inhibition of human MATE1-mediated ASP+ uptake expressed in HEK293 cells after 1.5 mins by fluorescence assay; assay type: cell-based
T3 sequence (Q96FL8 whole entry): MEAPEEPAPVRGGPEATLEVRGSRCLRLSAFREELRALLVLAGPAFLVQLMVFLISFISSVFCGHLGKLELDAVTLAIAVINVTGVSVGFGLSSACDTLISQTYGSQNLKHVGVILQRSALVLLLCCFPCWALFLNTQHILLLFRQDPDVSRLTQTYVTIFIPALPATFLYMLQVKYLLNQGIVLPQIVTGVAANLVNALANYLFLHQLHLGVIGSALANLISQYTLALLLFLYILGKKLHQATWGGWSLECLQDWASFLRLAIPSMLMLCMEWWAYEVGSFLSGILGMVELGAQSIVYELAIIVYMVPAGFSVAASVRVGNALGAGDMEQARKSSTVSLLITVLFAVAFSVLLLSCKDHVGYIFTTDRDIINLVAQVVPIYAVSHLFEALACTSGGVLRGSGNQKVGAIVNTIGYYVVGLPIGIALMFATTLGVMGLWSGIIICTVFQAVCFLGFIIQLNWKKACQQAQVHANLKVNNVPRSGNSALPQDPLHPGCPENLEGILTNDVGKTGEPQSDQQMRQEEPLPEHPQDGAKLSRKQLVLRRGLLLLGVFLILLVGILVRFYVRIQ

[4] = molecular target: T3, Multidrug and toxin extrusion protein 1; assay: Inhibition of human MATE1-mediated [14]-metformin uptake expressed in HEK293 cells after 1.5 mins by scintillation counting analysis; assay type: cell-based
[5] = molecular target: T3, Multidrug and toxin extrusion protein 1; assay: Inhibition of human MATE1-mediated [14]-metformin uptake expressed in polarized MDCK2 cells after 5 mins by liquid scintillation counting analysis; assay type: cell-based, MDCK-II

## O=C1CCc2ccc(OCCCCN3CCN(c4cccc(Cl)c4Cl)CC3)cc2N1 [ARIPIPRAZOLE]
[1]
  IC50: > 500 µM
[2]
  IC50: 239 µM
[3]
  IC50: 130 µM

## Cc1nc2n(c(=O)c1CCN1CCC(c3noc4cc(F)ccc34)CC1)CCCC2 [RISPERIDONE]
[1]
  IC50: 291 µM
[2]
  IC50: 11 µM
[3]
  IC50: 1.6 µM

## Cc1nccn1CC1CCc2c(c3ccccc3n2C)C1=O (centres undefined) [ONDANSETRON]
[4]
  IC50: 0.03 µM
[5]
  IC50: < 0.01 µM

## COc1cc2nc(N3CCN(C(=O)c4ccco4)CC3)nc(N)c2cc1OC [PRAZOSIN]
[2]
  IC50: 13.6 µM
